From patent publication US8785600B2, “Anti-GCC antibody molecules and related compositions and methods” (Millennium Pharmaceuticals, Inc., priority 2009, dated 2014)

Test system: CT26 hGCC/luc #32 cells
Experiment: Pilot efficacy study with naked antibody in CT26 hGCC/luc #32 disseminated model
Conditions: vs vehicle or 209-treated groups

“5F9: Human anti-GCC mAb (IgG2, kappa) of hybridoma 5F9, ATCC PTA-8132; VH SEQ ID NO:18, VL SEQ ID NO:20; also engineered as IgG1” was tested, and the “Lung tumor nodules (visual inspection)” value was “fewer tumor nodules”.
